Biological target: Oxysterols receptor LXR-beta (Homo sapiens, UniProt P55055)

Sequences of proteins named here, by UniProt entry; tags and fusion partners are left off.
UniProt P55055, whole entry: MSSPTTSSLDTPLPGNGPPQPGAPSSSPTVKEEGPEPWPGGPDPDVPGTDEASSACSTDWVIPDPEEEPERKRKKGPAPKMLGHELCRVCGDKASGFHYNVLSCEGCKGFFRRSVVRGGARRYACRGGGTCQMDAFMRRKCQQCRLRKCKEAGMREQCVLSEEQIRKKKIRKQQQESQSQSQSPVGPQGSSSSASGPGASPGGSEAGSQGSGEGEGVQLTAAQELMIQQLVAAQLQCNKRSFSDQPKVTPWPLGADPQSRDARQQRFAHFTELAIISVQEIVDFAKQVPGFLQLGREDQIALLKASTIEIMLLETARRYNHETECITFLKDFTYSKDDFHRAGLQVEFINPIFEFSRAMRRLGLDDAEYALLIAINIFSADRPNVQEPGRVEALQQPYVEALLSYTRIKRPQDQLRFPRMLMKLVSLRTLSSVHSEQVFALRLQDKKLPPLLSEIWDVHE

Structure (SMILES)	EC50 [nM]	IC50 [nM]
CS(=O)(=O)c1cccc(N2CCN(Cc3ccc(C(F)(F)F)nc3)C(c3ccccc3Br)C2)c1 (centres undefined)	949	–
CS(=O)(=O)c1cccc(N2CCN(Cc3ccc(C(F)(F)F)nc3)C(c3ccc(Br)cc3)C2)c1 (centres undefined)	1350	–
CC(C)(C)OC(=O)N1CCN(c2cccc(S(C)(=O)=O)c2)CC1c1ccc(Br)cc1 (centres undefined)	81	> 50000
